The experiment addresses actin filaments (F-actin) of lily pollen tubes (lily (Lilium grandiflorum / Lilium longiflorum cv. Osnat)). Description: cell-based or functional assay.

The substance “Aspergillus niger B1 extracellular RNase (RNase B1) (from UniProt P19791 1-238) (enzyme)” came in with an inhibition of lily pollen tube growth, 1 uM RNase B1, relative to control of 36.5%.
